What is called Ki is the equilibrium dissociation constant of an inhibitor or competing ligand from its target.

Protein sequences, listed by entry. Tags and fused reporters are not part of them.
UniProt O00629, whole entry: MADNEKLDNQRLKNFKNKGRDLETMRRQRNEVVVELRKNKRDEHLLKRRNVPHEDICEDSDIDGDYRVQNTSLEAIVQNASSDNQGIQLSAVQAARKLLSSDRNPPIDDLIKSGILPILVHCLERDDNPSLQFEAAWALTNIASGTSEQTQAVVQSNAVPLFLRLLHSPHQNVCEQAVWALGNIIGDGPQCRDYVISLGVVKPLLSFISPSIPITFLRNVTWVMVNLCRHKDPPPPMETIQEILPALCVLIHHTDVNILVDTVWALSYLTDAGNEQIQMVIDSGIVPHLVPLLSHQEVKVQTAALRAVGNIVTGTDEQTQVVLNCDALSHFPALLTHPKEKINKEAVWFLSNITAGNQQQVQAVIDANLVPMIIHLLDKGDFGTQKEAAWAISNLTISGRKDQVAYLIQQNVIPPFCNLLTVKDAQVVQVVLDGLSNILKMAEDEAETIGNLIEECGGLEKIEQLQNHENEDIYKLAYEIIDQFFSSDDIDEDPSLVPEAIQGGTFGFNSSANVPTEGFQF

The assay has as its target KPNA4 ARM (importin subunit alpha-3, armadillo repeat domain) (human) (UniProt O00629). Nature of the assay: fluorescence polarisation; competition: unlabelled peptide in serial dilution against KPNA4 ARM (master mix at four times the KD) with the probe FITC-NCOR2(1307-1322), probe of the minor pocket; 50 mM KPO4 pH 7.5; Ki calculated from IC50.

With PSPKRKLEEPVLEFRP (C-terminal amide) [ZNF532 1139-1154 peptide], the Ki was 360 nM.

The record behind these values is paper PMC8769072, “Proteome‐scale mapping of binding sites in the unstructured regions of the human proteome” (Molecular Systems Biology, 2022).
